Molecules are shown by their SMILES.

Amino acid sequences for entries named in this document (tags omitted).
UniProt P08908, whole entry, species assumed: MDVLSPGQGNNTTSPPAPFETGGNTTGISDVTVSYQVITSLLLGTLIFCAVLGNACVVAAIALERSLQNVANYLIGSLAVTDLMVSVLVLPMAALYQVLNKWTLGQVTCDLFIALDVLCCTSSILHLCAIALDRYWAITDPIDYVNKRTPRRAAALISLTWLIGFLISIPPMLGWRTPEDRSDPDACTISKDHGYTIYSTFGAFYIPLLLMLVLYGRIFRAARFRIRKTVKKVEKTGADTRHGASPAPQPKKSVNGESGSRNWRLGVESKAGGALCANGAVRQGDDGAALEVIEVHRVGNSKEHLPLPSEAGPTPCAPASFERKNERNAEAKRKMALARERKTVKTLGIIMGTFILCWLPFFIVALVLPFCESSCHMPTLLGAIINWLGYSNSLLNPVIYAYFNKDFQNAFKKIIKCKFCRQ

One may read the Ki as a dissociation constant, usually derived from enzyme kinetics or from competition with a known ligand. A high value points to a looser hold on the target.

This assay concerns the target 5-HT1A (Homo sapiens, UniProt P08908). The assay can be described thus: 5-HT1A receptor affinity (Ki), Table 1. The assay is classed as binding.
For `Cc1ccc(S(=O)(=O)NCCCCN2CCN(c3cccc(NC(=O)C(C)(C)C)c3)CC2)cc1` [2,2-Dimethyl-N-(3-{4-[4-(toluene-4-sulfonylamino)-butyl]-piperazin-1-yl}-phenyl)-propionamide], the Ki is 1360 nM. That is a single-digit micromolar value. To `CC(=O)Nc1cccc(N2CCN(CCCCNS(=O)(=O)c3ccc(C)cc3)CC2)c1` [N-(3-{4-[4-(Toluene-4-sulfonylamino)-butyl]-piperazin-1-yl}-] [N-(3-{4-[4-(Toluene-4-sulfonylamino)-butyl]-piperazin-1-yl}-phenyl)-acetamide] belongs 6.8 nM.

For the compound `CC(=O)Nc1cccc(N2CCN(CCCCNS(=O)(=O)c3ccc(C)cc3)CC2)c1` [N-(3-{4-[4-(Toluene-4-sulfonylamino)-butyl]-piperazin-1-yl}-phenyl)-acetamide], the Ki was 16 nM.
